The chains behind the UniProt entries cited, without tags or fusion partners. A line that says so, or that is headed by a name, gives the form on record, which may keep a tag or linker.
UniProt P63142, with tags, fused parts or gaps with the stated changes: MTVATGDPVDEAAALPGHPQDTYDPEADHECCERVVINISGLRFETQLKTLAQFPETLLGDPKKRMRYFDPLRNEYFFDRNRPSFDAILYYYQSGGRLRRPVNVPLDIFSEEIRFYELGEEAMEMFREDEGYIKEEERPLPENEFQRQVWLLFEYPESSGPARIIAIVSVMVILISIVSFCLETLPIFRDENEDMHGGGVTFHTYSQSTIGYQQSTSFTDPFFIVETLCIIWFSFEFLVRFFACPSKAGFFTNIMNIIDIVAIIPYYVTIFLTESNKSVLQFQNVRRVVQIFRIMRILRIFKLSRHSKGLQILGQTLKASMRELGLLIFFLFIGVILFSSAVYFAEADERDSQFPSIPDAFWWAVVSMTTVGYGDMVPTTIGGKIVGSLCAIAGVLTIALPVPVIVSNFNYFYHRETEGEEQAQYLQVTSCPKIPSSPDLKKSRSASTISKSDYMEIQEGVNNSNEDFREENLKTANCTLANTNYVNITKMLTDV

In article PMC3660741, “Structure of a pore-blocking toxin in complex with a eukaryotic voltage-dependent K^+ channel” (eLife, 2013):

Biological target: T1, Kv2.1 paddle–Kv1.2 chimera channel (paddle chimera) (Rattus norvegicus, UniProt P63142, DEL270-295/F267Y/F302L/I268V/INS296FLTESNKSVLQFQNVRRVVQIF/L298I/N207Q/V299M/V301I)
T1 construct: made in house; host or cells: Pichia pastoris
Experiment: CTX inhibition of paddle chimera in planar lipid bilayer, dose-response fitted for Kd
Format: biochemical
Settings: KCl on both sides; planar bilayer of 20 mg/ml DPhPC; holding −110 mV, depolarized to +110 mV; fit I/Imax = 0.1 + 0.9 × (1 + [CTX]/Kd)^−1; n = 2–4; read-out: affinity (Kd) for inhibition of paddle chimera

Compound: CSCC[C@@H]1NC(=O)CNC(=O)[C@H](CCCNC(=N)N)NC(=O)[C@H](CO)NC(=O)[C@H]([C@@H](C)O)NC(=O)[C@H](CC(N)=O)NC(=O)[C@H](Cc2c[nH]cn2)NC(=O)[C@H](CC(C)C)NC(=O)[C@H](CCCNC(=N)N)NC(=O)[C@H](CCC(N)=O)NC(=O)[C@@H]2CSSC[C@@H](C(=O)N[C@@H](Cc3ccc(O)cc3)C(=O)N[C@@H](CO)C(=O)O)NC(=O)[C@H](CCCNC(=N)N)NC(=O)[C@@H]3CSSC[C@H](NC(=O)[C@H](CCC(=O)O)NC(=O)[C@H](CCCCN)NC(=O)[C@H](CO)NC(=O)[C@H]([C@@H](C)O)NC(=O)[C@H]([C@@H](C)O)NC(=O)[C@@H](NC(=O)[C@H](CO)NC(=O)[C@@H](NC(=O)[C@H](CC(N)=O)NC(=O)[C@@H](NC(=O)[C@H](Cc4ccccc4)NC(=O)[C@@H]4CCC(=O)N4)[C@@H](C)O)C(C)C)CSSC[C@H](NC1=O)C(=O)N[C@@H](CCSC)C(=O)N[C@@H](CC(N)=O)C(=O)N[C@@H](CCCCN)C(=O)N[C@@H](CCCCN)C(=O)N3)C(=O)N[C@@H](Cc1c[nH]c3ccccc13)C(=O)N[C@@H](CO)C(=O)N[C@@H](C(C)C)C(=O)N2 [Lys27Met CTX]
- Kd: ~630 nM
